Results published in patent publication US20070191336A1 (priority 2003, published 2007).

Sequences of proteins named here, by UniProt entry; tags and fusion partners are left off.
UniProt Q16539, whole entry: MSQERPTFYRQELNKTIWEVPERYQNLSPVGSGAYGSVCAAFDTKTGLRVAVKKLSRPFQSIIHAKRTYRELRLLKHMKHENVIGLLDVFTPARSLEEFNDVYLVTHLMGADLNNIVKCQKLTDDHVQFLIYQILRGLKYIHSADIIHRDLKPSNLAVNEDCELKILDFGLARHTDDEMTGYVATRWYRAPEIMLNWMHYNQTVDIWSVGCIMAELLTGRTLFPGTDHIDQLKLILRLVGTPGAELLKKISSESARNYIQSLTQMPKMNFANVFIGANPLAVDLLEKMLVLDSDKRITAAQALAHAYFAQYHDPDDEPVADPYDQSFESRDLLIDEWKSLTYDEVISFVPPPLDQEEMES

Legend:
[1] = biological target: T1, phospho p-38 alpha kinase (Homo sapiens, UniProt Q16539); test: P-38 alpha kinase assay (spectrophotometric, pyruvate kinase/lactate dehydrogenase coupled); format: biochemical; conditions: for IC50: rates from […] to 2 h time frame
T1 construct: purchased Panvera
Method: In this assay, the oxidation of NADH was continuously measured spectrophometrically. […] The reaction was initiated by adding ATP. The absorption at 340 nm was monitored continuously for up to 4 hours at 30° C. on Polarstar Optima plate reader (BMG). The kinase activity (reaction rate) was calculated from the slope at the time frame from 1.5 h to 2 h.
For inhibition determinations, test compounds were incubated with the reaction mixture for ˜5 min before adding ATP to start the reaction. […] IC50 values were calculated from a series of % inhibition values determined at a range of concentrations of each inhibitor using Prism to process the data and fit inhibition curves. Generally, the rates obtained at the time frame of 1.5 h to 2 h were used for these calculations.

[2] = biological target: p38 MAP kinase (unphosphorylated p38-alpha kinase) (Homo sapiens, UniProt Q16539); test: P38 MAP kinase binding assay (fluorescence competition with SKF 86002 probe); conditions: IC50 values obtained at 2 hours reaction time; 1 μM SKF 86002, 80 nM p38 kinase
Method: The reaction was initiated by addition of the enzyme. […] By comparison of rfu (relative fluorescence unit) values with that of a control (in the absence of an inhibitor), the percentage of inhibition at each concentration of the inhibitor was calculated. IC50 value for the inhibitor was calculated from the % inhibition values obtained at a range of concentrations of the inhibitor using Prism. When time-dependent inhibition was assessed, the plate was read at multiple reaction times such as 0.5, 1, 2, 3, 4 and 6 hours. The IC50 values were calculated at the each time point. An inhibition was assigned as time-dependent if the IC50 values decrease with the reaction time (more than two-fold in four hours).

SMILES | IC50 ([1]; Table 2) [nM] | further results
CC1C(=O)NS(=O)(=O)N1Cc1cccc(-n2nc(C(C)(C)C)cc2NC(=O)Nc2cccc3ccccc23)c1 (stereo in doubt) [Example 160, 1-{5-t-butyl-2-[3-((S)-3-methyl-1,1,4-trioxo-1λ^6-[1,2,5]thiadiazolidin-2-ylmethyl)-phenyl]-2H-pyrazol-3-yl}-3-naphthalen-1-yl-urea] | – | IC50 ([1]; Table 3): 44 nM
CC1C(=O)NS(=O)(=O)N1Cc1cccc(-n2nc(C(C)(C)C)cc2NC(=O)Nc2cccc3ccccc23)c1 (stereo in doubt) [Example 161, 1-{5-t-butyl-2-[3-((R)-3-methyl-1,1,4-trioxo-1λ^6-[1,2,5]thiadiazolidin-2-ylmethyl)-phenyl]-2H-pyrazol-3-yl}-3-naphthalen-1-yl-urea] | – | IC50 ([1]; Table 3): 100 nM
Cn1[nH]c(=O)n(Cc2cccc(-n3nc(C(C)(C)C)cc3NC(=O)Nc3cccc4ccccc34)c2)c1=O [Example 1, 1-(3-tert-butyl-1-{3-[(1-methyl-3,5-dioxo-1,2,4-triazolidin-4-yl)methyl]phenyl}-1H-pyrazol-5-yl)-3-(naphthalene-1-yl)urea] | 67 | IC50 [2]: 292 nM
Cn1[nH]c(=O)n(Cc2cccc(-n3nc(C(C)(C)C)cc3NC(=O)Nc3ccc(Cl)cc3)c2)c1=O [Example 2, 1-(3-tert-butyl-1-{3-[(1-methyl-3,5-dioxo-1,2,4-triazolidin-4-yl)methyl]phenyl}-1H-pyrazol-5-yl)-3-(4-chlorophenyl)urea] | 290 | –
CC(C)(C)c1cc(NC(=O)Nc2ccc(Cl)cc2)n(-c2cccc(CC(N)=O)c2)n1 [Example 26, 1-{3-tert-butyl-1-[3-(carbamoylmethyl)phenyl)-1H-pyrazol-5-yl}-3-(4-chlorophenyl)urea] | 190 | –
CC(C)(C)c1cc(NC(=O)Nc2cccc3ccccc23)n(-c2cccc(CCC(=O)O)c2)n1 [Example 29] | 11 | –
CC(C)(C)c1cc(NC(=O)Nc2ccc(Cl)cc2)n(-c2cccc(CCC(=O)O)c2)n1 [Example 30, 3-(3-{3-tert-butyl-5-[3-(4-chlorophenyl)ureido]-1H-pyrazol-1-yl)phenyl)propionic acid] | 251 | –
CC(C)(C)c1cc(NC(=O)Nc2cccc3ccccc23)n(-c2ccc(CCC(=O)O)cc2)n1 [Example 31, 3-{4-[3-tert-butyl-5-(3-(naphthalene-1-yl)ureido]-1H-pyrazol-1-yl}phenyl)propanonic acid] | 56 | –
CC(C)(C)c1cc(NC(=O)Nc2ccc(Cl)cc2)n(-c2ccc(CCC(=O)O)cc2)n1 [Example 32, 3-{4-[3-tert-butyl-5-(3-(4-chlorophenyl)ureido]-1H-pyrazol-1-yl}phenyl)propanonic acid] | 307 | –
CC(C)(C)c1cc(NC(=O)Nc2ccc(Cl)cc2)n(-c2ccc(O)cc2)n1 [Example 54, 1-{3-tert-butyl-1-(4-hydroxyphenyl)-1H-pyrazol-5-yl}-3-(4-chlorophenyl)urea] | – | inhibition at 1 µM ([1]; read-out: % inhibition @ concentration, Table 2, at 1.0 uM): 68%
CC(C)(C)c1cc(NC(=O)Nc2cccc(Cl)c2Cl)n(-c2cccc(CC(N)=O)c2)n1 [Example 411, 1-{1-[3-(2-amino-2-oxoethyl)phenyl]-3-t-butyl-1H-pyrazol-5-yl}-3-(2,3-dichlorophenyl)urea] | – | IC50 ([1]; Table 3): 8 nM
